Test results: ChEMBL document CHEMBL3994596, “Structural Basis for Potency and Promiscuity in Poly(ADP-ribose) Polymerase (PARP) and Tankyrase Inhibitors” (J Med Chem, 2017)

Protein sequences, listed by entry. Tags and fused reporters are not part of them. Lines headed by an entry give the natural chain unless they say otherwise; changes in a name come on top.
UniProt Q460N5, whole entry: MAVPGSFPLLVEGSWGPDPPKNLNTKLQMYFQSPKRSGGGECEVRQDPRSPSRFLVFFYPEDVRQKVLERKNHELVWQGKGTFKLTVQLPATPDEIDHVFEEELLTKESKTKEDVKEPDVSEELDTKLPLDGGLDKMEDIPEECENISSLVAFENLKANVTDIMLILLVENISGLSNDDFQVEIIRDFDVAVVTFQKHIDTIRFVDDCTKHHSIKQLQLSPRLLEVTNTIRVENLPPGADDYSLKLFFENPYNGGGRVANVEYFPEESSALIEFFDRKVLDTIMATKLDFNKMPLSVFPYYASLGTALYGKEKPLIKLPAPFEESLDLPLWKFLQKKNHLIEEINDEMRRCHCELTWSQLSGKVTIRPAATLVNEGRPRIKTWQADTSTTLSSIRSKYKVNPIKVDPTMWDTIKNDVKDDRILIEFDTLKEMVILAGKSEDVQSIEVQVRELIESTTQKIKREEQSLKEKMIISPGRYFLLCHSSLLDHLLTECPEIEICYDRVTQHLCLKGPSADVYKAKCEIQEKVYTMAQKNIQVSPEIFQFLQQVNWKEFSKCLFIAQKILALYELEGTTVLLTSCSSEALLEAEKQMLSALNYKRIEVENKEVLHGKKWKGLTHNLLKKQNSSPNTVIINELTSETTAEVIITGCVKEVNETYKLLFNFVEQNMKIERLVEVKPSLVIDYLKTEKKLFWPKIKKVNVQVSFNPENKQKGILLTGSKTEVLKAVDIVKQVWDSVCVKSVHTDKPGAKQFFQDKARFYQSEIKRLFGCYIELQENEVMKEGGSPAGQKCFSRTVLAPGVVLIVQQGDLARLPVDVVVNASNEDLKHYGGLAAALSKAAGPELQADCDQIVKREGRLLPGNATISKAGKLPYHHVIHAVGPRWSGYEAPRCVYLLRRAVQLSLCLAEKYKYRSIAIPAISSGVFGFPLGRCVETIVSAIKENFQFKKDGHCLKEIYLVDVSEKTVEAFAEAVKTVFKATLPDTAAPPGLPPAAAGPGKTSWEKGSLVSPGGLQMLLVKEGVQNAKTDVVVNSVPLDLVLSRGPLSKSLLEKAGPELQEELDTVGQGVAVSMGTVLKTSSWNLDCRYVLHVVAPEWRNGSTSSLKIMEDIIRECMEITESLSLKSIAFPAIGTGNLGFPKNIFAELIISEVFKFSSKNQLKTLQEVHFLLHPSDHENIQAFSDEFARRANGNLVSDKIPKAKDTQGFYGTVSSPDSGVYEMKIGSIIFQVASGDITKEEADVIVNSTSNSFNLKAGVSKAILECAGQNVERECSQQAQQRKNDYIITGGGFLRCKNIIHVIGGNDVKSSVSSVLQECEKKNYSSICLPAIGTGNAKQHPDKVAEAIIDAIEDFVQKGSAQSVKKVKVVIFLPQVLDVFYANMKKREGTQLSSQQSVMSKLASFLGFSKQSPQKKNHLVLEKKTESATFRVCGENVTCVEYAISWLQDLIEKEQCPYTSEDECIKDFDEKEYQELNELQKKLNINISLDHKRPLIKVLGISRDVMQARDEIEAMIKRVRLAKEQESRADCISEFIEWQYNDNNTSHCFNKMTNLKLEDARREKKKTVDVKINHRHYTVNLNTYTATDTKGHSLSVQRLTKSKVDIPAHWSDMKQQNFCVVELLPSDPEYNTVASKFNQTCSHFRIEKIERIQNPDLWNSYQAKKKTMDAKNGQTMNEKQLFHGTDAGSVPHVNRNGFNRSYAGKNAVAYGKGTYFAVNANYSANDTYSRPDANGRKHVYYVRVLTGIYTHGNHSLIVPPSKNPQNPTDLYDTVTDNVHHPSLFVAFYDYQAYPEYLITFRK
UniProt Q9UKK3: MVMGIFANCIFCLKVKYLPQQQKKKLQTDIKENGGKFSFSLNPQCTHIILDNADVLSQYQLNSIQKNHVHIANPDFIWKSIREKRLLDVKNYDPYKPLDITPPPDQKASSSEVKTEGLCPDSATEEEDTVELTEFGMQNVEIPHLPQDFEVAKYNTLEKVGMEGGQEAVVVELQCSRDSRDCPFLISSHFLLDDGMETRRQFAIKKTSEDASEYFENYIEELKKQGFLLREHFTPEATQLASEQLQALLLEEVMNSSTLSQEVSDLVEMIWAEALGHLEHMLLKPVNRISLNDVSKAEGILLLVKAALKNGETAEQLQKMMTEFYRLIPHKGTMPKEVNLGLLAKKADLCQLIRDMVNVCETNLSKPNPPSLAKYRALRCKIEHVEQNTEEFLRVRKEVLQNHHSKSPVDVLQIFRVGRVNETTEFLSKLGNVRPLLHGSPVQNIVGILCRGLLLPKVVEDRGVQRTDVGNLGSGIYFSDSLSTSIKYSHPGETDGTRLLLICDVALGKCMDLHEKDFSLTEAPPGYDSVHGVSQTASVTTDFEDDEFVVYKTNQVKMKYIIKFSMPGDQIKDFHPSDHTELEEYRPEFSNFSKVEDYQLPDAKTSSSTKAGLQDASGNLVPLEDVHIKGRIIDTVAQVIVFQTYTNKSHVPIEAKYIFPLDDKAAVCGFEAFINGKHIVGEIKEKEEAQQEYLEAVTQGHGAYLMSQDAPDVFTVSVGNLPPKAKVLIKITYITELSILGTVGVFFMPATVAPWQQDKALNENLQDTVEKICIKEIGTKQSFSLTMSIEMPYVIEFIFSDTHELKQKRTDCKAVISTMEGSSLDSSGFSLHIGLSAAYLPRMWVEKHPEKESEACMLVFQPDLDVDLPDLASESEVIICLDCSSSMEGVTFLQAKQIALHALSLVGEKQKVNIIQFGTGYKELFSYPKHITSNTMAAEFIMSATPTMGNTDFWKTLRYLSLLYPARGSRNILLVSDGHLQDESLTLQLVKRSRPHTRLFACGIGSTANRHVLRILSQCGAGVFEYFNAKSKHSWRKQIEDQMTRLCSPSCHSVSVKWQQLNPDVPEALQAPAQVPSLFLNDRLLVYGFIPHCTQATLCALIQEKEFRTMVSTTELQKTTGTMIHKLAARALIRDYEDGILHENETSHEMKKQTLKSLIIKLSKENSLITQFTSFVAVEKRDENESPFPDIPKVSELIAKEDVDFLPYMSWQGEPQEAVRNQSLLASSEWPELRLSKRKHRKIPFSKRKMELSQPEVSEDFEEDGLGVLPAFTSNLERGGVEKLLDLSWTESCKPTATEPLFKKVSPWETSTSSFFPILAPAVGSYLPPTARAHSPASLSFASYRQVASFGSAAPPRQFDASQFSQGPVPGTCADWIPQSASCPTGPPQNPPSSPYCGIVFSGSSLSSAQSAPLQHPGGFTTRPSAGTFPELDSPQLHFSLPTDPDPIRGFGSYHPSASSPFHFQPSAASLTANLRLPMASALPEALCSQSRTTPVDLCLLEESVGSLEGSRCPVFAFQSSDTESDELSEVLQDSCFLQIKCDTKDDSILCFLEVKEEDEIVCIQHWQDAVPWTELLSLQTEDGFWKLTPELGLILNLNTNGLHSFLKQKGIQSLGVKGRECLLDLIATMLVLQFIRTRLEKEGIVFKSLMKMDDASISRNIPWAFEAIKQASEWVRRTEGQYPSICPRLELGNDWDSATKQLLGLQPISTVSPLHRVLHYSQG

Assays:
[1] = target: T1, Poly [ADP-ribose] polymerase tankyrase-2 (Homo sapiens, UniProt Q9H2K2)
T1 sequence (Q9H2K2 whole entry): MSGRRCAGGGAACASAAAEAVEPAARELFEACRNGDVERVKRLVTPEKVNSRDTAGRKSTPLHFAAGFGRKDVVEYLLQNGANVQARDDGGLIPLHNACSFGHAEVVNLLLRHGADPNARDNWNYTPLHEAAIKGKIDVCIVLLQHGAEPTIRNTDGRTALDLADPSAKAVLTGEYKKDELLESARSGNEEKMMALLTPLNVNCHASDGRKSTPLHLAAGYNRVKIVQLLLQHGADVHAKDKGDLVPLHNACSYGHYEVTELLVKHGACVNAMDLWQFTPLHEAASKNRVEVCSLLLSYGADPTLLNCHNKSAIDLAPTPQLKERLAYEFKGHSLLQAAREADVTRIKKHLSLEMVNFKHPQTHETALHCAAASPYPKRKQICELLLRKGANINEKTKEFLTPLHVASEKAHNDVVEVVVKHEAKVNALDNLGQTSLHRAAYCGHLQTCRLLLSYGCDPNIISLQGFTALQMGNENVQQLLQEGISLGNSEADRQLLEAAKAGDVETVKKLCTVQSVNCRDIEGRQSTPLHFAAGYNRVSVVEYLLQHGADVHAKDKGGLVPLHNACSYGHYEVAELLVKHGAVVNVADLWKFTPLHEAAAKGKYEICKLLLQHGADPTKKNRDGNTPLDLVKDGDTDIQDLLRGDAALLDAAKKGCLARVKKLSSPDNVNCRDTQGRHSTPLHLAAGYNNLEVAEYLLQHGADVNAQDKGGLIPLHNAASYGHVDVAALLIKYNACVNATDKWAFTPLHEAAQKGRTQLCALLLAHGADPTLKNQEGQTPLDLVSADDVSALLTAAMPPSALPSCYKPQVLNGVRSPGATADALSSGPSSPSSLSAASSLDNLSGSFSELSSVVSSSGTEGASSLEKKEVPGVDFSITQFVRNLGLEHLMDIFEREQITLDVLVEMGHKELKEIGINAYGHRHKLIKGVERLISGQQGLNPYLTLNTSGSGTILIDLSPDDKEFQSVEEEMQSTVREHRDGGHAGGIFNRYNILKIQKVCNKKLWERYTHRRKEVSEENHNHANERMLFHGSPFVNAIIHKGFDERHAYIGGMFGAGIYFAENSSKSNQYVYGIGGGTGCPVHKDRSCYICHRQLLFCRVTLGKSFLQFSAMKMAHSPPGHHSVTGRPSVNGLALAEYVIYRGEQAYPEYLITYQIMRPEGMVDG

[2] = target: Protein mono-ADP-ribosyltransferase PARP14 (Homo sapiens, UniProt Q460N5)
[3] = target: T2, Protein mono-ADP-ribosyltransferase PARP15 (Homo sapiens, UniProt Q460N3)
T2 sequence (Q460N3 whole entry): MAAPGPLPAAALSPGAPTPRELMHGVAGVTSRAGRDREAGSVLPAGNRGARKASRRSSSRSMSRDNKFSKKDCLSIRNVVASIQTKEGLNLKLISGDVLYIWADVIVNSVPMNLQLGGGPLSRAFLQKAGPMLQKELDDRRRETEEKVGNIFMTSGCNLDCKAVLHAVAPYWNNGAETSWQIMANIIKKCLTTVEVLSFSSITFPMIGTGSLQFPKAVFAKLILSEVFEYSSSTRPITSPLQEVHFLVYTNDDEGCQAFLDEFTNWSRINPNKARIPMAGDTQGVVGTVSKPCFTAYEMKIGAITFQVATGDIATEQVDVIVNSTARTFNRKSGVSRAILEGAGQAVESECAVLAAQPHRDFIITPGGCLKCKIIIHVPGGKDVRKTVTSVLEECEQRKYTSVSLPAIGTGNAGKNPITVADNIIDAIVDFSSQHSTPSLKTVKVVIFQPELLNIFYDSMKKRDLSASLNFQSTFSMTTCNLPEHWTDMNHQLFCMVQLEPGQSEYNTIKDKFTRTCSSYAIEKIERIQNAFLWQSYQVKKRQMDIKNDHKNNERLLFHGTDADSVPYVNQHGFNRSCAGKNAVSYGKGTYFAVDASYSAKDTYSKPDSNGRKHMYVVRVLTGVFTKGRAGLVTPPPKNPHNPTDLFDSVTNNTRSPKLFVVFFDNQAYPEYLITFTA

[4] = target: Protein mono-ADP-ribosyltransferase PARP4 (Homo sapiens, UniProt Q9UKK3)
[5] = target: T3, Protein mono-ADP-ribosyltransferase PARP10 (Homo sapiens) (UniProt Q53GL7)
T3 sequence (whole entry): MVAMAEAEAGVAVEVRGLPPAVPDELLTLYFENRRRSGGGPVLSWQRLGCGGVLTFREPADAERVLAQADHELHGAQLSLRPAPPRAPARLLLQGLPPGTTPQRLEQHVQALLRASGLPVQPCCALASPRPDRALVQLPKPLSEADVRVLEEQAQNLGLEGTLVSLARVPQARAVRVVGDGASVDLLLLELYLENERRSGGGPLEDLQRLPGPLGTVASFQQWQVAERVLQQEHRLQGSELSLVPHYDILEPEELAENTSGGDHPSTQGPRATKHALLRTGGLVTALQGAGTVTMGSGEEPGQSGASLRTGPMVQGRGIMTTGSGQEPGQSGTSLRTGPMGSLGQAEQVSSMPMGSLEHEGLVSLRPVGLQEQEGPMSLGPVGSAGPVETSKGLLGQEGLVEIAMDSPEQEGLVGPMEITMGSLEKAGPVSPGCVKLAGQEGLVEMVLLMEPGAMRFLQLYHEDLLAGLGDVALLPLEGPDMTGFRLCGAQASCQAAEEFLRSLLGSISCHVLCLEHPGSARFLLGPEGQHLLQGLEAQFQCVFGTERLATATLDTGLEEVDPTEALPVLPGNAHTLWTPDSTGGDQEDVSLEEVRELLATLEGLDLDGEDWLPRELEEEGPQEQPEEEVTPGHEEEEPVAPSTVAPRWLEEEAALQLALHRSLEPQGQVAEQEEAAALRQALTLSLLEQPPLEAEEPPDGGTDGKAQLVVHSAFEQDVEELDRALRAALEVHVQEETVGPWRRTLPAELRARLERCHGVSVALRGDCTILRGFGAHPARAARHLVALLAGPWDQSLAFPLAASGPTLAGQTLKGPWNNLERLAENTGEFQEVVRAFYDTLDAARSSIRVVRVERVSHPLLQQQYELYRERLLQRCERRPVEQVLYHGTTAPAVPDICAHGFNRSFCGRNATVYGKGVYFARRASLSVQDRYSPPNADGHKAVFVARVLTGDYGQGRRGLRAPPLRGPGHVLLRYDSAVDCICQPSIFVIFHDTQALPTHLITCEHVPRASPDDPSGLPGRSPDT

Cc1cc(N2C[C@@H](C)N[C@@H](C)C2)ncc1-c1ccc(-c2nc3c(ccn3C)c(=O)[nH]2)cc1
IC50 [1]: 0.0006 µM and 0.000479 µM
IC50 [2]: 3.4 µM
IC50 [3]: 25.6 µM
pIC50 [4]: inactive
pIC50 [5]: inactive

NC(=O)c1cccc2cn(-c3ccc([C@@H]4CCCNC4)cc3)nc12 [NIRAPARIB]
IC50 [1]: 5.13 µM
IC50 [2]: 17.3 µM and 1.74 µM
IC50 [3]: 29.2 µM

“And” between values parts separate entries of the source, which are not always exact repeats. Identical values can stand only once. The source made the active and inactive calls. No cut-off for these calls is given here.
